# This is a sample that favours compounds with a hit; in the whole collection about 2.1% have one here.
# A549 tox – kills or reduces viability of A549 cells in Nrf2 counter-screen | A549 ARE-Fluc cells, CellTiter-Fluor viability, 18-24 h | 390,000 compounds, 0.16% hits | Potency, µM (titrated, usually from 46 µM), for inactives: top-dose activity change, negative = cytotoxicity, actives largely listed as inhibitors; also: potency is read from the fitted curve at half-maximal effect; % is scaled to controls: 0 for no effect and ±100 for the full control effect
#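 Cytotoxicity counterscreen: CellTiter-Fluor fluorescence was measured in A549 ARE_Fluc cells after 18-24 h of compound exposure in a concentration series. The subsequent BugLite luminescent read reports ARE-luciferase activity.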
# miR-21 reporter – raises the signal of a miR-21 reporter. Potency, µM (highest dose often 38.3 µM), without a hit: top-dose reporter change, positive = more light. 340,000 tested, under 10 active. HeLa miR-21 FLuc reporter, luciferase, 48 h; active = well fitted rising curve with a large enough effect; inconclusive = small, poorly fitted or top-dose-only effect; inactive = no such curve, though single readings can be large or run the other way;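 further: % of control where 0% means no effect; miR-21 action dims this reporter so a rising signal means less miR-21 action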
#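 Using DMEM plus 10% FBS, HeLa miR-21-FLuc cells are incubated with test compounds (final up to about 40uM) for 48 hours; firefly luciferase signal is then imaged following reagent-mediated lysis.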
# Nrf2 block – Nrf2 pathway inhibition; A549 ARE-Fluc reporter, luciferase luminescence, 18-24 h; Potency, µM (series often up to 46 µM), for inactives: at the top dose activity change, negative = inhibition, most hits filed as inhibitors; 360,000 compounds, 2.1% hits; also: potency is read from the fitted curve at half-maximal effect; % is scaled to controls: 0 for no effect and ±100 for the full control effect; nearly all actives have a fitted effect of over 60% in size
#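 Two sequential reads on A549 ARE_Fluc cells exposed to compound for 18-24 h: a CellTiter-Fluor fluorescence read for viability, then a luciferase luminescence read for Nrf2/ARE activity.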
# Nrf2 ARE act – activates Nrf2 signaling; 410,000 compounds, 0.31% hits; Potency, µM (titrated, usually from 46.1 µM), without a hit: at the top dose activation, most hits filed as activators; AREc32 ARE-luciferase reporter (MCF7-derived line), luminescence, 24 h; also: potency is read from the fitted curve at half-maximal effect; % of control where 0% means no effect; nearly all actives have a fitted effect of over 65% in size
#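 Reporter line AREc32 (ARE-Fluc), seeded overnight in OPTI-MEM with 5% FBS; compound pin-transferred, 24 hr at 37 deg C, 5% CO2; luminescent read-out.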
# Glioma ERSR ind – inducers of ER stress response in human glioma cells; Potency, µM, inactives show at the highest dose activation, most hits filed as activators; 420,000 compounds, 0.02% hits; U87-MG GRP78 promoter luciferase reporter, 16 h; also: potency is read from the fitted curve at half-maximal effect; series mostly up to about 76 µM; % of control where 0% means no effect; nearly all actives have a fitted effect of over 35% in size
#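 ERSR induction read as luciferase luminescence (Bright-Glo, 10 min at room temperature) in stably transfected human U87-MG glioma cells exposed to compounds for 16 h, using GRP78 as sensor.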
# PTAP TSG101 blk – blocks PTAP/TSG101 interaction to inhibit HIV-1 budding. Q99816. Potency, µM (titrated, usually from 115 µM), for inactives: top-dose activity change, negative = inhibition, actives largely listed as inhibitors. AID 493005. Fluorescence polarization, FITC-PTAP peptide / Tsg101 binding. 340,000 tested, under 10 active; active = well fitted inhibition curve with a large enough effect in the main read-out, with a control signal flat, not every such curve was filed as active; inconclusive = small, poorly fitted or top-dose-only effect, or effect the other way, or a change in a side signal; inactive = no such curve, though single readings can be large or run the other way; also: potency is read from the fitted curve at half-maximal effect; % of control where 0% means no effect
#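 FP read-out: FITC-PTAP peptide, 50 nM final, binding Tsg101 binding domain, 10 uM final; 20 min, r.t.; 10 mM HEPES pH 7.5, 0.15 M NaCl, 0.01% Tween 20, 3 mM EDTA, 0.1 mM TCEP.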
# * hit, by the source's call; u = inconclusive; x = no result given; ! = not active in a repeat; [ ] = remark or other dose. Unless noted, calls follow the shape of the dose curve; as a rule, active = well fitted curve in the direction sought with a large enough effect; inconclusive = small, poorly fitted or top-dose-only effect, or another doubt; inactive = no such curve, though single readings can be large; an effect the other way counts as inactive or inconclusive.
# Every second line gives: A549 tox, miR-21 reporter, Nrf2 block, Nrf2 ARE act, Glioma ERSR ind, PTAP TSG101 blk
> Oc1ccc(Cl)cc1C1C=C(c2ccc3c(c2)OCO3)NC(c2ccc(Cl)cc2)N1 (stereo not given)
  1.3%, x, u, x, u, x
> CC(=O)C1=C(C)NC(SCC(=O)c2cc(Cl)ccc2Cl)=C(C#N)C1c1ccco1 (stereo not given)
  u, 0.6%, 7.31µM*, 22.6%, -1.4%, -1.5%
> CC(=O)C1=C(C)NC(SCC(=O)c2ccc(Cl)c(Cl)c2)=C(C#N)C1c1ccco1 (stereo not given)
  -29.0%, 7.8%, u, 4.3%, 1.8%, 5.0%
> CNC(=O)c1cccc(NC(=O)c2cc(-c3ccccc3)nc3c2cnn3C(C)C)c1
  -19.8%, x, 20.6µM*, -0.1%, -12.2%, -7.6%
> COC(=O)c1cccc(-c2cc(Cl)c3c(c2)CC(CNC(=O)c2cccnc2)O3)c1 (stereo not given)
  x, x, x, x, 1.9%, x
> CC(C)CNc1ncnc2oc(-c3ccco3)c(-c3ccco3)c12
  -13.8%, x, 16.4µM*, x, -3.0%, x
> OCCN(CCO)c1ccc(/C=C/c2ccnc3ccccc23)cc1
  x, x, x, x, 2.2%, x
> CC(=O)N1CCc2c(sc(NC(=O)C3COc4ccccc4O3)c2C(N)=O)C1 (stereo not given)
  0.2%, -19.4%, -12.6%, 4.3%, 10.3%, -3.9%
> COC(=O)c1c(NC(=O)C2COc3ccccc3O2)sc2c1CCN(C(C)=O)C2 (stereo not given)
  u, 13.5%, 20.6µM*, 3.3%[9.22 µM], -1.6%, -1.4%
> O=C(COc1ccc(Cl)cc1Cl)N/N=C/CCc1ccccc1
  1.9%, -2.9%, 6.1%, -0.3%, -4.7%, -7.1%
> Cc1c(Cl)cccc1NC(=O)CCC(=O)N/N=C/c1ccc[nH]1
  u, -1.1%, 18.4µM*, 0.3%, -1.7%, 0.2%
> O=C(COc1ccc(Cl)cc1Cl)N/N=C/c1ccc[nH]1
  u, -8.5%, 9.2µM*, 9.1%, 0.8%, -4.7%
> Cc1ccc(C)c(NC(=O)CCC(=O)N/N=C/c2ccc[nH]2)c1
  -13.0%, -1.0%, u, -0.3%, -6.0%, -12.5%
> CCOC(=O)c1ccc(NS(=O)(=O)c2ccc3c(c2)CCCN3C(C)=O)cc1
  -15.7%, -4.6%, u, -0.2%, 2.2%, -4.6%
> O=C(C1CCC1)N1CCc2cc(S(=O)(=O)Nc3ccc4c(c3)OCCO4)ccc21
  -13.6%, -1.9%, u, -0.2%, -5.0%, -5.1%
> CCOC(=O)c1ccc(NS(=O)(=O)c2ccc3c(c2)CCN3C(=O)CC)cc1
  1.2%, -2.1%, 25.9µM*, -0.9%, -2.7%, x
> CCOC(=O)C1CCCN(S(=O)(=O)c2ccc3c(c2)CCN3C(=O)CC)C1 (stereo not given)
  -0.4%, -4.3%, 9.2µM*, 0.1%, -3.5%, x
> CCC(=O)N1CCc2cc(S(=O)(=O)Nc3ccc4c(c3)OCCO4)ccc21
  -17.4%, 14.2%, 20.6µM*, 0.5%, 1.1%, -2.0%
> O=C(c1cn(C2CCCN(Cc3cccc(Oc4ccccc4)c3)C2)nn1)N1CCCC1 (stereo not given)
  x, x, x, x, -2.1%, x
> C(=C\c1ccnc2ccccc12)/c1ccc(N2CCOCC2)cc1
  x, x, x, x, -1.7%, x
> Cc1cc2nc(N3CCC(NC(C)c4nc(-c5ccccn5)no4)CC3)nc(C)c2cc1C (stereo not given)
  x, x, x, x, 6.0%, x
> CC1(C)Cc2ccccc2/C(=C/C(=O)N2CCCCCC2)N1
  -27.0%, 4.0%, 25.9µM*, -0.1%, 0.2%, -1.2%
> CC(C)C1N=C(c2ccc3c(c2)OCO3)CC(c2ccccc2O)N1 (stereo not given)
  -8.9%, 16.0%, 22.9%, u, u, -6.1%
> CCOc1ccccc1C1N=C(c2ccc(OC)cc2)CC(c2ccccc2O)N1 (stereo not given)
  -10.1%, 0.4%, u, 15.8µM*, u, -1.0%
> O=C(NC[C@@H]1CCCN2CCCC[C@H]12)c1cnn(-c2nccc(-c3ccco3)n2)c1C1CC1
  x, x, x, x, -1.2%, x
> Cc1ccc(S(=O)(=O)c2nnn3c2nc(NCCc2ccccc2)c2sccc23)cc1
  -1.3%, 28.9%, 20.6µM*, -1.4%, -4.8%, x
> Cc1ccc(CCNc2nc3c(S(=O)(=O)c4ccccc4)nnn3c3ccsc23)cc1
  5.2%, -6.5%, -1.7%, -0.7%, -2.0%, x
> N#Cc1nc(Nc2cccc([N+](=O)[O-])c2)nc(NC2CCCC2)n1
  -2.4%, x, 16.4%, x, x, x
> Cc1cc(Nc2ccc(Br)c(C)c2)n2nc(-c3ccco3)nc2n1
  -6.2%, 19.1%, x, 6.3%, -0.2%, x
> Cc1cc(C)n2nc(-c3ccco3)nc2n1
  0.9%, -1.3%, 4.6%, 12.6µM*, 4.8%, -9.3%
> CCc1ccc(NC(=O)CSc2nnc(-c3ccccc3)n2C)cc1
  x, x, x, x, -3.1%, x
> Oc1ccccc1C1C=C(c2ccc3c(c2)OCO3)NC(c2cccc(F)c2)N1 (stereo not given)
  1.8%, x, 6.0%, x, u, x
> Cc1cccc(Cn2c(SCc3ccc(C(=O)N4CCCCCC4)cc3)nc3ccncc32)c1
  -0.3%, 0.8%, 23.1µM*, -1.1%, -0.5%, x
> COc1ccc(OC)c(CN2CCOc3ccc(C(O)c4cccnc4)cc3C2)c1 (stereo not given)
  x, x, x, x, -2.6%, x
> O=C1C(Nc2ccccc2)=CC(c2ccc(O)cc2)N1c1ccccc1 (stereo not given)
  0.5%, -29.0%, -0.6%, 1.1%, 5.6%, 0.9%
> COc1cc(C2C=C(Nc3ccccc3)C(=O)N2c2ccccc2)ccc1O (stereo not given)
  u, -35.9%, 18.4µM*, 3.1%, 4.5%, -1.0%
> CCCN(CCC)CCNC(=O)c1cc2c(-c3ccc(Cl)cc3)nn(C)c2s1
  23.1µM*, -1.0%, 23.1µM*!, 4.4%, -1.4%, -9.6%
> COc1ccc(NC(=O)CCS(=O)(=O)c2ccc(Br)s2)cc1
  -0.7%, -3.3%, -24.4%, 0.1%, -1.0%, 0.8%
> CC(C)c1ccc(NC(=O)CCS(=O)(=O)c2ccc(Br)s2)cc1
  -2.4%, 21.8%, 25.9µM*, 5.9%, -2.2%, x
> CCCCCCCCN1[C@@H](CC(C)=O)c2ccc(/C=C/C(C)=O)cc2S1(=O)=O
  x, x, x, x, -11.4%, x

# As a working copy, part of the list above:
# Every second line gives: A549 tox, miR-21 reporter, Nrf2 block, Nrf2 ARE act, Glioma ERSR ind, PTAP TSG101 blk
> CCCN(CCC)CCNC(=O)c1cc2c(-c3ccc(Cl)cc3)nn(C)c2s1
  23.1µM*, -1.0%, 23.1µM*!, 4.4%, -1.4%, -9.6%
> COc1ccc(NC(=O)CCS(=O)(=O)c2ccc(Br)s2)cc1
  -0.7%, -3.3%, -24.4%, 0.1%, -1.0%, 0.8%
> CC(C)c1ccc(NC(=O)CCS(=O)(=O)c2ccc(Br)s2)cc1
  -2.4%, 21.8%, 25.9µM*, 5.9%, -2.2%, x
> CCCCCCCCN1[C@@H](CC(C)=O)c2ccc(/C=C/C(C)=O)cc2S1(=O)=O
  x, x, x, x, -11.4%, x

# The list goes on:
# Every second line gives: A549 tox, miR-21 reporter, Nrf2 block, Nrf2 ARE act, Glioma ERSR ind, PTAP TSG101 blk
> CCN(CC)S(=O)(=O)c1cc(-c2nnc(-c3ccc(Br)cc3)o2)ccc1Br
  5.6%, -4.3%, x, 0.7%, 1.3%, 0.0%
> CCN(CC)S(=O)(=O)c1cc(-c2nnc(-c3ccc(Br)cc3)o2)ccc1Cl
  -21.9%, -5.2%, 20.6µM*, -0.5%, 0.9%, -6.1%
> O=C(C[n+]1ccccc1Cl)c1ccc2ccccc2c1
  x, x, x, x, 2.4%, x
> CCOc1ccccc1N(C(=O)c1snc(C(N)=O)c1N)C(C(=O)NCCC(C)C)c1ccco1 (stereo not given)
  u, 0.4%, 25.9µM*, 0.5%, -2.5%, -5.1%

# Screens: PubChem, National Center for Advancing Translational Sciences (NCATS)
